Data taken from patent US8946247B2, “Quinazoline carboxamide azetidines” (Merck Patent GmbH, priority 2010, dated 2015).

By UniProt entry, the sequences of proteins in these tests, tags left out. Residues count along the entry.
UniProt P23443, 1-421 T412E limits assumed: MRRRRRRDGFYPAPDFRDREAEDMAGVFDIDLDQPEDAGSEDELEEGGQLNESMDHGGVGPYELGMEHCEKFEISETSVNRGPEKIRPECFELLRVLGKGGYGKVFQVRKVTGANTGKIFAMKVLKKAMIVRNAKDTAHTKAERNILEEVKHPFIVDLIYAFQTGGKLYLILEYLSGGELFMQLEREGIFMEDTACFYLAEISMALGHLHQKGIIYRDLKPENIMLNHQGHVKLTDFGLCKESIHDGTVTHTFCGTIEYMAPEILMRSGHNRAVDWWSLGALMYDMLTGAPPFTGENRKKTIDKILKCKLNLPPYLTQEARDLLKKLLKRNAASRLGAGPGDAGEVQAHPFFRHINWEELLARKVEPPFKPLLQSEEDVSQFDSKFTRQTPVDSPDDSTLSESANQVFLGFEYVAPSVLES
UniProt Q96GD4, whole entry: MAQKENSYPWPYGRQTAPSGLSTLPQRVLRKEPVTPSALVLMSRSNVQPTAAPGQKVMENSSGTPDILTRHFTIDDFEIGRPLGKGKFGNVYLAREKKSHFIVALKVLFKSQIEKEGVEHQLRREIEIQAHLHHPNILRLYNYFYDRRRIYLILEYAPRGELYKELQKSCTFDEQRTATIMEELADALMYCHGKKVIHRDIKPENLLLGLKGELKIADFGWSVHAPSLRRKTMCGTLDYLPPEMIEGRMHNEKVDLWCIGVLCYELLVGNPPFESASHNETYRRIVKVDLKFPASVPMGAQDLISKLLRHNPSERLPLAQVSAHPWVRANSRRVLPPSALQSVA
UniProt Q9NQS7, 803-918 partner limits assumed: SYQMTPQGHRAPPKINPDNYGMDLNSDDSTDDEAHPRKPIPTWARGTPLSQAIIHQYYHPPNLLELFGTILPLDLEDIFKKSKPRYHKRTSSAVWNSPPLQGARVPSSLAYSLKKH

Key:
P70S6K (T412E mutant) = P70S6K (T412E mutant) (Homo sapiens, UniProt P23443, T412E); assay: p70S6K Enzyme Assay; conditions: read-out: IC50 p70S6K; 24 μM ATP, 90 min at 25° C., Caliper mobility shift
Protocol: p70S6K inhibitor compounds were diluted and plated in 96 well plates. A reaction mixture including the following components were then added to the compound plate to initiate the enzyme reaction; P70S6K (3 nM, T412E mutant, Millipore) was mixed with 24 μM ATP in an assay buffer containing 100 mM Hepes (pH 7.5), 5 mM MgCl2, 1 mM DTT, 0.015% Brij and 1 μM of the substrate peptide FITC-AHA-AKRRRLSSLRA-OH (derived from the S6 ribosomal protein sequence, FITC=fluorescein isothiocyanate, AHA=6-aminohexanoic acid). The reaction was incubated for 90 min at 25° C., before the addition of 10 mM EDTA to stop the reaction. The proportion of substrate and product (phosphorylated) peptide was analysed on a Caliper Life Sciences Lab Chip 3000, using a pressure of −1.4 psi, and upstream and downstream voltages of −3000 and −700 respectively. Product peaks were resolved before substrate peaks on the resulting chromatograms.
To assess the inhibitory potential of the compounds, IC50-values were determined, as shown in Chemical Synthesis section above.

Aurora B = Aurora B (Homo sapiens, UniProt Q96GD4); assay: Aurora B Kinase Assay; conditions: read-out: Aurora B IC50; GST-Aurora B (1-344), 10 uM ATP, 90 min at 25 C
Protocol: To measure inhibitor activity of Aurora B inhibitors in the Caliper Life Sciences LC3000, a TTP Mosquito liquid handling instrument was used to place 0.25 ul of the appropriate concentration of inhibitor in 100% DMSO (for a dose response curve calculation) into each well of a 384-well plate. To this reaction components was added to a final volume of 25 ul: • 0.1 ng/ul GST-Aurora B (1-344 amino acids), (Carna Biosciences 05-102. N-terminal GST fusion with His tagged INCEP, accession number Q96GD4). • 10 uM ATP (Fluka, 02055) • 1 mM DTT (Sigma, D0632) • 1 mM MgCl2 (Sigma, M1028) • 1 uM substrate peptide (sequence FITC-LRRASLG-(CONH2), synthesized by Tufts Peptide Synthesis service. • 100 mM HEPES pH 7.5 (Calbiochem, 391338) • 0.015% Brij-35 (Sigma, B4184)
The reaction was incubated for 90 min at 25 C, and then stopped by the addition of 70 ul of Stop buffer (100 mM HEPES pH 7.5, 0.015% Brij-35, 10 mM EDTA (Sigma, E7889)).
The plate was read on a Caliper LC 3000 in an Off-Chip mobility shift assay format, using the following parameters for a 12-sipper chip: screening pressure −1.8 psi, upstream voltage −2700, downstream voltage −1000. […] The percent conversion was plotted against concentration of inhibitor to produce a sigmoidal dose response curve, from which an IC50 was calculated using XLFit for Microsoft Excel.

In the case of NC(=O)c1cccc2c(N[C@H](CN3CCC3)c3ccc(NC(=O)c4ccccc4)cc3)ncnc12, the IC50 (P70S6K (T412E mutant)) is reported as 0.44 µM and the IC50 (Aurora B) is reported as over 0.01 µM.
